These are literature values, as cited in US20110268774A1, “PREPARATION OF STEM CELLS WITH REPROGRAMMED CELL SIGNALLING, A METHOD OF PRODUCING THE PREPARATION AND A METHOD OF USE THEREOF” (priority 2008, published 2011).

The data set has as its system Wnt and Sonic hedgehog signaling pathways.

On to `CC1=C2C[C@H]3[C@@H](CC=C4C[C@@H](O)CC[C@@]43C)[C@@H]2CC[C@]12O[C@@H]1C[C@H](C)CN[C@H]1[C@H]2C` [Cyclopamine], for which the CSC proliferation result is reported as “Suppresses CSC”.
